Source: PubChem BioAssay (NCI)
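Protocol summary: plate cells (96-well), add compound at 5 concentrations, incubate 48 h, interpolate endpoints linearly. At the GI50, growth is halved. TGI marks complete inhibition of growth.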

What was measured:
Test in all cases: inhibition of tumour cell growth, NCI panel, 48 h
CCRF-CEM leukemia = test system: CCRF-CEM leukemia
SK-OV-3 ovarian = test system: SK-OV-3 ovarian
HCT-116 colon = test system: HCT-116 colon
K-562 leukemia = test system: K-562 leukemia
SK-MEL-28 melanoma = test system: SK-MEL-28 melanoma
HT29 colon = test system: HT29 colon
RXF 393 renal = test system: RXF 393 renal
SNB-19 CNS = test system: SNB-19 CNS
HS 578T breast = test system: HS 578T breast
DU-145 prostate = test system: DU-145 prostate
HCT-15 colon = test system: HCT-15 colon
KM12 colon = test system: KM12 colon
A549 NSCLC = test system: A549 NSCLC
MALME-3M melanoma = test system: MALME-3M melanoma
RPMI-8226 leukemia = test system: RPMI-8226 leukemia
CAKI-1 renal = test system: CAKI-1 renal
UACC-62 melanoma = test system: UACC-62 melanoma
UACC-257 melanoma = test system: UACC-257 melanoma
NCI-H460 lung = test system: NCI-H460 lung
OVCAR-8 ovarian = test system: OVCAR-8 ovarian
M14 melanoma = test system: M14 melanoma
NCI-H23 lung = test system: NCI-H23 lung
SW-620 colon = test system: SW-620 colon
HOP-62 NSCLC = test system: HOP-62 NSCLC
COLO 205 colon = test system: COLO 205 colon
MDA-MB-231 breast = test system: MDA-MB-231 breast
OVCAR-5 ovarian = test system: OVCAR-5 ovarian
BT-549 breast = test system: BT-549 breast
SF-268 CNS = test system: SF-268 CNS
SN12C renal = test system: SN12C renal
EKVX NSCLC = test system: EKVX NSCLC
SR leukemia = test system: SR leukemia
IGROV1 ovarian = test system: IGROV1 ovarian
SK-MEL-5 melanoma = test system: SK-MEL-5 melanoma
SF-539 CNS = test system: SF-539 CNS
HCC-2998 colon = test system: HCC-2998 colon
MDA-MB-435 = test system: MDA-MB-435
MOLT-4 leukemia = test system: MOLT-4 leukemia
SF-295 CNS = test system: SF-295 CNS
OVCAR-4 ovarian = test system: OVCAR-4 ovarian
PC-3 prostate = test system: PC-3 prostate
SNB-75 CNS = test system: SNB-75 CNS
U251 CNS = test system: U251 CNS
LOX IMVI melanoma = test system: LOX IMVI melanoma
786-0 renal = test system: 786-0 renal
OVCAR-3 ovarian = test system: OVCAR-3 ovarian
A498 renal = test system: A498 renal
NCI-H226 lung = test system: NCI-H226 lung
T-47D breast = test system: T-47D breast
TK-10 renal = test system: TK-10 renal
MCF7 breast = test system: MCF7 breast
NCI-H522 lung = test system: NCI-H522 lung
ACHN renal = test system: ACHN renal
UO-31 renal = test system: UO-31 renal
NCI/ADR-RES ovarian = test system: NCI/ADR-RES ovarian
NCI-H322M lung = test system: NCI-H322M lung
SK-MEL-2 melanoma = test system: SK-MEL-2 melanoma

## BrCCN(CCBr)c1ccc2c(c1)Cc1ccccc1-2
CCRF-CEM leukemia
  GI50: 0.951 µM
  TGI: > 100 µM
SK-OV-3 ovarian
  GI50: 2.17 µM
  TGI: 8.6 µM
HCT-116 colon
  GI50: 1.21 µM
  TGI: 2.92 µM
K-562 leukemia
  GI50: 2.72 µM
  TGI: > 100 µM
SK-MEL-28 melanoma
  GI50: 2.59 µM
  TGI: 7.65 µM
HT29 colon
  GI50: 1.84 µM
  TGI: 6.35 µM
RXF 393 renal
  GI50: 1.6 µM
  TGI: 3.11 µM
SNB-19 CNS
  GI50: 2.24 µM
  TGI: 14.5 µM
HS 578T breast
  GI50: 4.07 µM
  TGI: 39.9 µM
DU-145 prostate
  GI50: 1.83 µM
  TGI: 11.1 µM
HCT-15 colon
  GI50: 1.9 µM
  TGI: 7.21 µM
KM12 colon
  GI50: 2.33 µM
  TGI: 10.8 µM
A549 NSCLC
  GI50: 1.2 µM
  TGI: 10.3 µM
MALME-3M melanoma
  GI50: 1.55 µM
  TGI: 4.56 µM
RPMI-8226 leukemia
  GI50: 1.64 µM
  TGI: 8.95 µM
CAKI-1 renal
  GI50: 0.227 µM
  TGI: 0.804 µM
UACC-62 melanoma
  GI50: 1.17 µM
  TGI: 2.82 µM
UACC-257 melanoma
  GI50: 2.2 µM
  TGI: 6.47 µM
NCI-H460 lung
  GI50: 0.353 µM
  TGI: 4.09 µM
OVCAR-8 ovarian
  GI50: 1.49 µM
  TGI: 4.5 µM
M14 melanoma
  GI50: 1.3 µM
  TGI: 3.55 µM
NCI-H23 lung
  GI50: 0.672 µM
  TGI: 3.29 µM
SW-620 colon
  GI50: 0.997 µM
  TGI: 10.6 µM
HOP-62 NSCLC
  GI50: 1.76 µM
  TGI: 5.85 µM
COLO 205 colon
  GI50: 1.56 µM
  TGI: 3.52 µM
MDA-MB-231 breast
  GI50: 2.75 µM
  TGI: 11.6 µM
OVCAR-5 ovarian
  GI50: 3.14 µM
  TGI: 9.23 µM
BT-549 breast
  GI50: 1.66 µM
  TGI: 4.62 µM
SF-268 CNS
  GI50: 1.3 µM
  TGI: 10.4 µM
SN12C renal
  GI50: 1.27 µM
  TGI: 8.06 µM
EKVX NSCLC
  GI50: 2.25 µM
  TGI: 7.76 µM
SR leukemia
  GI50: 0.231 µM
  TGI: > 100 µM
IGROV1 ovarian
  GI50: 1.42 µM
  TGI: 4.69 µM
SK-MEL-5 melanoma
  GI50: 1.36 µM
  TGI: 2.66 µM
SF-539 CNS
  GI50: 1.07 µM
  TGI: 5.77 µM
HCC-2998 colon
  GI50: 1.48 µM
  TGI: 3.04 µM
MDA-MB-435
  GI50: 1.78 µM
  TGI: 4.18 µM
MOLT-4 leukemia
  GI50: 0.743 µM
  TGI: > 100 µM
SF-295 CNS
  GI50: 1.06 µM
  TGI: 4.99 µM
OVCAR-4 ovarian
  GI50: 2.06 µM
  TGI: 5.53 µM
PC-3 prostate
  GI50: 2.04 µM
  TGI: 12.8 µM
SNB-75 CNS
  GI50: 2.08 µM
  TGI: 7 µM
U251 CNS
  GI50: 1.23 µM
  TGI: 4.01 µM
LOX IMVI melanoma
  GI50: 1.11 µM
  TGI: 3.78 µM
786-0 renal
  GI50: 1.19 µM
  TGI: 3.02 µM
OVCAR-3 ovarian
  GI50: 2.13 µM
  TGI: 6.42 µM
A498 renal
  GI50: 1.56 µM
  TGI: 3.67 µM
NCI-H226 lung
  GI50: 1.53 µM
  TGI: 4.63 µM
T-47D breast
  GI50: 1.48 µM
  TGI: 7.39 µM
TK-10 renal
  GI50: 2.54 µM
  TGI: 6.14 µM
MCF7 breast
  GI50: 0.253 µM
  TGI: 4.49 µM
NCI-H522 lung
  GI50: 1.5 µM
  TGI: 3.29 µM
ACHN renal
  GI50: 0.401 µM
  TGI: 3.07 µM
UO-31 renal
  GI50: 1.62 µM
  TGI: 4.53 µM
NCI/ADR-RES ovarian
  GI50: 1.5 µM
  TGI: 5.75 µM
NCI-H322M lung
  GI50: 2.65 µM
  TGI: 7.95 µM
SK-MEL-2 melanoma
  GI50: 2.28 µM
  TGI: 4.63 µM
